According to PubChem BioAssay AID504339 (National Center for Advancing Translational Sciences (NCATS), 2011):
Only a part is listed here, and it is no random draw. Records with an inconclusive call do not appear. Activity calls are given as the source filed them. The call rests on the fitted dose curve; in most records, active means well fitted inhibition curve with a large enough effect; inconclusive means small, poorly fitted or top-dose-only effect; inactive means no such curve, though single readings can be large or run the other way.

Sequences of proteins named here, by UniProt entry; tags and fusion partners are left off. A change or cut given only in a name is not applied to a line headed by its entry.
UniProt O75164: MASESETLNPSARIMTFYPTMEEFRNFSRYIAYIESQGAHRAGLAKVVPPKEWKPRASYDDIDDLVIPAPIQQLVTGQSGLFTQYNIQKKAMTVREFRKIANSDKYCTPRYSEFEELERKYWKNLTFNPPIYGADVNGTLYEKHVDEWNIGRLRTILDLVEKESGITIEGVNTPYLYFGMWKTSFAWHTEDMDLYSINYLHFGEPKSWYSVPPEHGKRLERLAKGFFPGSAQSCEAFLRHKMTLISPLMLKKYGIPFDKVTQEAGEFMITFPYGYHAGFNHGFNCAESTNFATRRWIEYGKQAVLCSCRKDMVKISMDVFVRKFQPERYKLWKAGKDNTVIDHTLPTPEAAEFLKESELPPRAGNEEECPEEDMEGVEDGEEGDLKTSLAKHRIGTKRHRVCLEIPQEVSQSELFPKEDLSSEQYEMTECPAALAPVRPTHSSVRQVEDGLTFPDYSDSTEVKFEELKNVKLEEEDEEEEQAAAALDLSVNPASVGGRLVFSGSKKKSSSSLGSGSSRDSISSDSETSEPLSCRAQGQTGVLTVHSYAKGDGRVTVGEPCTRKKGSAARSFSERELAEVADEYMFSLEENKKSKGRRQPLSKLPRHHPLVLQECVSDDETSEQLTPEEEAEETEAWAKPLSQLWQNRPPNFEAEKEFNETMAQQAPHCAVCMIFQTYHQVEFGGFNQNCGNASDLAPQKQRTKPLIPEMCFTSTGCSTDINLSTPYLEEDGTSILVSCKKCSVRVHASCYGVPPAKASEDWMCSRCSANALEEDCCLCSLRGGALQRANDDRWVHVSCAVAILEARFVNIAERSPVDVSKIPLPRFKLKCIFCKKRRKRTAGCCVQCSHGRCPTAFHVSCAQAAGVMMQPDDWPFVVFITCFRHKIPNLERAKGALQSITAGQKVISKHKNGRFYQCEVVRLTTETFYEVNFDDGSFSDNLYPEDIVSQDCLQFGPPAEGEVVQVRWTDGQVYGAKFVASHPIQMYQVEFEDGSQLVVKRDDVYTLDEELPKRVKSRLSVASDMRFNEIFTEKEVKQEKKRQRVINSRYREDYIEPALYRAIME

The molecules below were run against Lysine-specific demethylase 4A (Homo sapiens) (UniProt O75164) (assay: qHTS Assay for Inhibitors of JMJD2A-Tudor Domain). Conditions: AlphaScreen JMJD2A-Tudor / H3K4me3 peptide binding.
Text: JMJD2A is a jumonji-domain-containing lysine demethylase that uses Fe(II) together with 2-OG to effect oxidative demethylation of histones. Methylation is one of many […] modification that affect epigenetic transcription. […] It is proposed that the functions of JmjD2A binding to the histones, is to maintain marks after they are installed and to spread the modifications by […], establishing a self-propagating cycle for rapid methylation over a large area of chromatin. […] A quantitative high throughput AlphaScreen has been developed to identify small molecule inhibitors based on a protocol published by NCGC and SGC [4]. […]
[2] Yasgar, et al. Compound Management for Quantitative High-Throughput Screening. […]
[3] Inglese, et al. Quantitative high-throughput screening: a titration-based approach that efficiently identifies biological activities in large chemical libraries. […]
To each well of a 1,536w plate, 2ul of JMJD2A-Tudor (final 100nM) and 1ul biotinylated histone peptide methylated at Lys4 [b-H3(1-18)K4me3] […] Microplates were then read on an EnVision multilabel plate reader using the 1,536 plate HTS AlphaScreen aperture (excitation time 80 ms, measurement time 240 ms).
Further: nearly all actives have a fitted effect of over 50% in size.
Potency means the concentration at half of the fitted maximal effect.

Compound	Potency
OCCOCCN1CCN(C(c2ccccc2)c2ccc(Cl)cc2)CC1 (stereo unspecified)	active: 89.1 µM
